Assay results from patent USRE38460E1 (priority 1994, dated 2004).

Sequences of proteins named here, by UniProt entry; tags and fusion partners are left off. Residues count along the entry.
UniProt P37136, 32-616 isoform 2 limits assumed: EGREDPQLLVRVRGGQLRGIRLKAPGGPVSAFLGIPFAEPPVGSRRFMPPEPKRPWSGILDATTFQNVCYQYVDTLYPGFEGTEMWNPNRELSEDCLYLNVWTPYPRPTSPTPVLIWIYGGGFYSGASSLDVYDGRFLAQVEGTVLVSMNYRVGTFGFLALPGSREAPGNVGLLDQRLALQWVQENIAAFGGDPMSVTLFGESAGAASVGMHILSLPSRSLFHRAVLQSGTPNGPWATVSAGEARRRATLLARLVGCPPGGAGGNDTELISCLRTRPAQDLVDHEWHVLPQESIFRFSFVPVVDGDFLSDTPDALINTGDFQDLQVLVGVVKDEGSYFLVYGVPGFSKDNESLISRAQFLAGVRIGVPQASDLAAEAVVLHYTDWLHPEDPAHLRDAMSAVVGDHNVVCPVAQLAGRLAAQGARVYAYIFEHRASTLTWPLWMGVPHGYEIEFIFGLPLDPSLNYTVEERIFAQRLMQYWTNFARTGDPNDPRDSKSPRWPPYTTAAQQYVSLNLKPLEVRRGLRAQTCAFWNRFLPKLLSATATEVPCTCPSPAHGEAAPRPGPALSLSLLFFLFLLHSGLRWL
UniProt Q9JKC1, 24-597 limits assumed: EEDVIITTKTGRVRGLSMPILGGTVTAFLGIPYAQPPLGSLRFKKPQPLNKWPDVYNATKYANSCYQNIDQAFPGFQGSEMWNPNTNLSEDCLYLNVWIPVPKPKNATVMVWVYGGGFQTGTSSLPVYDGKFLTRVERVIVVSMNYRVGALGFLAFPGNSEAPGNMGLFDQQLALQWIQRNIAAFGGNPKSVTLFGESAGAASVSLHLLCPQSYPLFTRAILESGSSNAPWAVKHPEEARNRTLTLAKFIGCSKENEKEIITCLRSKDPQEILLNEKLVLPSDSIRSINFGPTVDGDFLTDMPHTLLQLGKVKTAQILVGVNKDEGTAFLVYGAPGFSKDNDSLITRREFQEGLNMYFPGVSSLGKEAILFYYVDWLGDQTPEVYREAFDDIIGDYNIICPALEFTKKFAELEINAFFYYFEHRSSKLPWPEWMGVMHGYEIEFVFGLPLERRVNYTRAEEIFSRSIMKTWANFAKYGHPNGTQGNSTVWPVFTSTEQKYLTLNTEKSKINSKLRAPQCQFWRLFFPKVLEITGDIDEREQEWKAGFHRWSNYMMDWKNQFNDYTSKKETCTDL

What was measured:
[1] = biological target: acetylcholinesterase (AChE) (Rattus norvegicus, UniProt P37136); conditions: read-out: concentration for inhibition of 50% of enzyme activity (IC50) acetylcholinesterase (AChE); Table 1; AChE taken from rat's red cell membrane
[2] = biological target: butyrylcholinesterase (BuChE) (Rattus norvegicus, UniProt Q9JKC1); test: In-vitro anticholinesterase effect, colorimetric method (Ellman), BuChE from rat's serum; format: biochemical; conditions: read-out: concentration for inhibition of 50% of enzyme activity (IC50) butyrylcholinesterase (BuChE); Table 1; BuChE taken from rat's serum

Structure (SMILES): CC=C1C2C=C(C)CC1(N(C)C(=O)C1=CN(C)CCC1)c1ccc(=O)n(C)c1C2 (centres unmarked)
- IC50 [1]: 3.63 µM
- IC50 [2]: > 331 µM
